Among the data in patent US20240238281A1, “PIPERAZINE DERIVATIVES AND APPLICATION THEREOF” (priority 2021, published 2024) are EC50 values, retold here.

Sequences of proteins named here, by UniProt entry; tags and fusion partners are left off.
UniProt Q01726, whole entry: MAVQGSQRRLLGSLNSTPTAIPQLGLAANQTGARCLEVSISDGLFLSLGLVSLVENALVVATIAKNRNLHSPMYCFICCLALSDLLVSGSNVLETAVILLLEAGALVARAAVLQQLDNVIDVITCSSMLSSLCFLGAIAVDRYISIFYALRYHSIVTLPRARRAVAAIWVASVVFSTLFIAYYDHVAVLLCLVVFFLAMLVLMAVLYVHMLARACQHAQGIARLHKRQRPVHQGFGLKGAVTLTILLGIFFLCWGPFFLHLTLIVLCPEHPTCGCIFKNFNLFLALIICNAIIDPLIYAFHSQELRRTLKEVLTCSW
UniProt P41968, whole entry: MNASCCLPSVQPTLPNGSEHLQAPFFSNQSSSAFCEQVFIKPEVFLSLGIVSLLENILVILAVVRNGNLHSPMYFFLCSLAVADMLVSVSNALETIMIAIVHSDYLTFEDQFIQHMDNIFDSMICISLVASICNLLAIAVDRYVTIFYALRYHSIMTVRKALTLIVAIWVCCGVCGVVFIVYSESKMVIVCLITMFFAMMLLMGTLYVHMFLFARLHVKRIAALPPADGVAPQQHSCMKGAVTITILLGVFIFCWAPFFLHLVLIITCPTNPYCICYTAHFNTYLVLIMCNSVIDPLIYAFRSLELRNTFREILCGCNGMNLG
UniProt P33032, whole entry: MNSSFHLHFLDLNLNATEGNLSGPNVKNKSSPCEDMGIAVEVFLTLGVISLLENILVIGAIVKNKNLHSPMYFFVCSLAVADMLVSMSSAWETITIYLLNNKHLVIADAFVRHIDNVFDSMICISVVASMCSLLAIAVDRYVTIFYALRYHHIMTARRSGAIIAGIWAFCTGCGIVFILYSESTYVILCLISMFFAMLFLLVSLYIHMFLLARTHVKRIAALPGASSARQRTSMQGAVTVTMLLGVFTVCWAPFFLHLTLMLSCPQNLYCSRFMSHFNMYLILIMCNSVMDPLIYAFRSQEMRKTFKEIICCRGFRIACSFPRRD
UniProt P32245, whole entry: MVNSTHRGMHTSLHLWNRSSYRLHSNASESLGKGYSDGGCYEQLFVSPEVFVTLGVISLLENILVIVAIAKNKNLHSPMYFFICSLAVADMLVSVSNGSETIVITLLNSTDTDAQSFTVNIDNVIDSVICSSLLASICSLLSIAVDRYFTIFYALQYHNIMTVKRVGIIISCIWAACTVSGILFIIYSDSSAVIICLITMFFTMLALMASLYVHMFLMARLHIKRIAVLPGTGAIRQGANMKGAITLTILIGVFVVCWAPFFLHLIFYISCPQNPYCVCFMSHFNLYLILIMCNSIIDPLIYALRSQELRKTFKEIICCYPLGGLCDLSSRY

SMILES strings stand for the structures.

Common to all, as to assay type: cell-based
In assay [1] the target is MC1R (Homo sapiens, UniProt Q01726). Description: In vitro activity of MCR receptors, intracellular cAMP signal (HEK293T/MCR cell line), MC1R. Conditions: read-out: MC1R EC50, tested form: HCl.
The target of assay [2] is MC3R (Homo sapiens, UniProt P41968). Description: In vitro activity of MCR receptors, intracellular cAMP signal (HEK293T/MCR cell line), MC3R. Conditions: read-out: MC3R EC50, tested form: HCl.
Assay [3] addresses MC5R (Homo sapiens, UniProt P33032). The assay can be described thus: In vitro activity of MCR receptors, intracellular cAMP signal (HEK293T/MCR cell line), MC5R. Conditions: read-out: MC5R EC50, tested form: HCl. As to the method:
(§1) Test purpose: to evaluate the agonistic effect of the compound on MCRs by detecting intracellular cAMP signal changes.
(§2) Cells were resuspended with 1×PBS+500 μM IBMX. 10 μL of the cell suspension was added into a 384-well plate to be tested, and the cell concentration was adjusted to 1×10^4 cells per well for later use. A pre-prepared solution of the compound to be tested was added, and dimethyl sulfoxide of the same volume was added to blank control wells. The test plate was centrifuged at 300 rpm for 1 minute, incubated at 37° C. for 30 minutes, and added with 5 μL of cAMP-d2 and 5 μL of a CAMP-cry antibody detection reagent. The test plate was centrifuged at 300 rpm for 1 minute, and incubated at room temperature for 60 minutes. The test plate was placed in the Envision multifunctional microplate reader for reading, with a detection wavelength of 665/615 nm.

For assay [4], the target named is MC4R (Homo sapiens, UniProt P32245). Description: In vitro activity of MCR receptors, intracellular cAMP signal (HEK293T/MCR cell line), MC4R. The following applies: read-out: MC4R EC50, tested form: HCl. As to the method:
as §1, §2

Consider `C[C@@H]1CN(C(=O)[C@@H]2CN(C(C)(C)C)C[C@H]2c2ccc(Br)cc2)C[C@H](C)N1c1ccc(F)cc1` (relative stereo), for which the 50% effective concentration (EC50) in assay [1] amounted to 55 nM; in assay [2], 1470 nM; in assay [3], 2800 nM; in assay [4], 18 nM.

What is called EC50 is the midpoint of the concentration-response curve.
